Drawing on ChEMBL document CHEMBL1141182, “Selective benzopyranone and pyrimido[2,1-a]isoquinolin-4-one inhibitors of DNA-dependent protein kinase: synthesis, structure-activity studies, and radiosensitization of a human tumor cell line in vitro” (J Med Chem, 2005), this text covers Ki for 1 compound.

Chains of the proteins cited; added tags and fusions are not shown.
UniProt P78527, whole entry: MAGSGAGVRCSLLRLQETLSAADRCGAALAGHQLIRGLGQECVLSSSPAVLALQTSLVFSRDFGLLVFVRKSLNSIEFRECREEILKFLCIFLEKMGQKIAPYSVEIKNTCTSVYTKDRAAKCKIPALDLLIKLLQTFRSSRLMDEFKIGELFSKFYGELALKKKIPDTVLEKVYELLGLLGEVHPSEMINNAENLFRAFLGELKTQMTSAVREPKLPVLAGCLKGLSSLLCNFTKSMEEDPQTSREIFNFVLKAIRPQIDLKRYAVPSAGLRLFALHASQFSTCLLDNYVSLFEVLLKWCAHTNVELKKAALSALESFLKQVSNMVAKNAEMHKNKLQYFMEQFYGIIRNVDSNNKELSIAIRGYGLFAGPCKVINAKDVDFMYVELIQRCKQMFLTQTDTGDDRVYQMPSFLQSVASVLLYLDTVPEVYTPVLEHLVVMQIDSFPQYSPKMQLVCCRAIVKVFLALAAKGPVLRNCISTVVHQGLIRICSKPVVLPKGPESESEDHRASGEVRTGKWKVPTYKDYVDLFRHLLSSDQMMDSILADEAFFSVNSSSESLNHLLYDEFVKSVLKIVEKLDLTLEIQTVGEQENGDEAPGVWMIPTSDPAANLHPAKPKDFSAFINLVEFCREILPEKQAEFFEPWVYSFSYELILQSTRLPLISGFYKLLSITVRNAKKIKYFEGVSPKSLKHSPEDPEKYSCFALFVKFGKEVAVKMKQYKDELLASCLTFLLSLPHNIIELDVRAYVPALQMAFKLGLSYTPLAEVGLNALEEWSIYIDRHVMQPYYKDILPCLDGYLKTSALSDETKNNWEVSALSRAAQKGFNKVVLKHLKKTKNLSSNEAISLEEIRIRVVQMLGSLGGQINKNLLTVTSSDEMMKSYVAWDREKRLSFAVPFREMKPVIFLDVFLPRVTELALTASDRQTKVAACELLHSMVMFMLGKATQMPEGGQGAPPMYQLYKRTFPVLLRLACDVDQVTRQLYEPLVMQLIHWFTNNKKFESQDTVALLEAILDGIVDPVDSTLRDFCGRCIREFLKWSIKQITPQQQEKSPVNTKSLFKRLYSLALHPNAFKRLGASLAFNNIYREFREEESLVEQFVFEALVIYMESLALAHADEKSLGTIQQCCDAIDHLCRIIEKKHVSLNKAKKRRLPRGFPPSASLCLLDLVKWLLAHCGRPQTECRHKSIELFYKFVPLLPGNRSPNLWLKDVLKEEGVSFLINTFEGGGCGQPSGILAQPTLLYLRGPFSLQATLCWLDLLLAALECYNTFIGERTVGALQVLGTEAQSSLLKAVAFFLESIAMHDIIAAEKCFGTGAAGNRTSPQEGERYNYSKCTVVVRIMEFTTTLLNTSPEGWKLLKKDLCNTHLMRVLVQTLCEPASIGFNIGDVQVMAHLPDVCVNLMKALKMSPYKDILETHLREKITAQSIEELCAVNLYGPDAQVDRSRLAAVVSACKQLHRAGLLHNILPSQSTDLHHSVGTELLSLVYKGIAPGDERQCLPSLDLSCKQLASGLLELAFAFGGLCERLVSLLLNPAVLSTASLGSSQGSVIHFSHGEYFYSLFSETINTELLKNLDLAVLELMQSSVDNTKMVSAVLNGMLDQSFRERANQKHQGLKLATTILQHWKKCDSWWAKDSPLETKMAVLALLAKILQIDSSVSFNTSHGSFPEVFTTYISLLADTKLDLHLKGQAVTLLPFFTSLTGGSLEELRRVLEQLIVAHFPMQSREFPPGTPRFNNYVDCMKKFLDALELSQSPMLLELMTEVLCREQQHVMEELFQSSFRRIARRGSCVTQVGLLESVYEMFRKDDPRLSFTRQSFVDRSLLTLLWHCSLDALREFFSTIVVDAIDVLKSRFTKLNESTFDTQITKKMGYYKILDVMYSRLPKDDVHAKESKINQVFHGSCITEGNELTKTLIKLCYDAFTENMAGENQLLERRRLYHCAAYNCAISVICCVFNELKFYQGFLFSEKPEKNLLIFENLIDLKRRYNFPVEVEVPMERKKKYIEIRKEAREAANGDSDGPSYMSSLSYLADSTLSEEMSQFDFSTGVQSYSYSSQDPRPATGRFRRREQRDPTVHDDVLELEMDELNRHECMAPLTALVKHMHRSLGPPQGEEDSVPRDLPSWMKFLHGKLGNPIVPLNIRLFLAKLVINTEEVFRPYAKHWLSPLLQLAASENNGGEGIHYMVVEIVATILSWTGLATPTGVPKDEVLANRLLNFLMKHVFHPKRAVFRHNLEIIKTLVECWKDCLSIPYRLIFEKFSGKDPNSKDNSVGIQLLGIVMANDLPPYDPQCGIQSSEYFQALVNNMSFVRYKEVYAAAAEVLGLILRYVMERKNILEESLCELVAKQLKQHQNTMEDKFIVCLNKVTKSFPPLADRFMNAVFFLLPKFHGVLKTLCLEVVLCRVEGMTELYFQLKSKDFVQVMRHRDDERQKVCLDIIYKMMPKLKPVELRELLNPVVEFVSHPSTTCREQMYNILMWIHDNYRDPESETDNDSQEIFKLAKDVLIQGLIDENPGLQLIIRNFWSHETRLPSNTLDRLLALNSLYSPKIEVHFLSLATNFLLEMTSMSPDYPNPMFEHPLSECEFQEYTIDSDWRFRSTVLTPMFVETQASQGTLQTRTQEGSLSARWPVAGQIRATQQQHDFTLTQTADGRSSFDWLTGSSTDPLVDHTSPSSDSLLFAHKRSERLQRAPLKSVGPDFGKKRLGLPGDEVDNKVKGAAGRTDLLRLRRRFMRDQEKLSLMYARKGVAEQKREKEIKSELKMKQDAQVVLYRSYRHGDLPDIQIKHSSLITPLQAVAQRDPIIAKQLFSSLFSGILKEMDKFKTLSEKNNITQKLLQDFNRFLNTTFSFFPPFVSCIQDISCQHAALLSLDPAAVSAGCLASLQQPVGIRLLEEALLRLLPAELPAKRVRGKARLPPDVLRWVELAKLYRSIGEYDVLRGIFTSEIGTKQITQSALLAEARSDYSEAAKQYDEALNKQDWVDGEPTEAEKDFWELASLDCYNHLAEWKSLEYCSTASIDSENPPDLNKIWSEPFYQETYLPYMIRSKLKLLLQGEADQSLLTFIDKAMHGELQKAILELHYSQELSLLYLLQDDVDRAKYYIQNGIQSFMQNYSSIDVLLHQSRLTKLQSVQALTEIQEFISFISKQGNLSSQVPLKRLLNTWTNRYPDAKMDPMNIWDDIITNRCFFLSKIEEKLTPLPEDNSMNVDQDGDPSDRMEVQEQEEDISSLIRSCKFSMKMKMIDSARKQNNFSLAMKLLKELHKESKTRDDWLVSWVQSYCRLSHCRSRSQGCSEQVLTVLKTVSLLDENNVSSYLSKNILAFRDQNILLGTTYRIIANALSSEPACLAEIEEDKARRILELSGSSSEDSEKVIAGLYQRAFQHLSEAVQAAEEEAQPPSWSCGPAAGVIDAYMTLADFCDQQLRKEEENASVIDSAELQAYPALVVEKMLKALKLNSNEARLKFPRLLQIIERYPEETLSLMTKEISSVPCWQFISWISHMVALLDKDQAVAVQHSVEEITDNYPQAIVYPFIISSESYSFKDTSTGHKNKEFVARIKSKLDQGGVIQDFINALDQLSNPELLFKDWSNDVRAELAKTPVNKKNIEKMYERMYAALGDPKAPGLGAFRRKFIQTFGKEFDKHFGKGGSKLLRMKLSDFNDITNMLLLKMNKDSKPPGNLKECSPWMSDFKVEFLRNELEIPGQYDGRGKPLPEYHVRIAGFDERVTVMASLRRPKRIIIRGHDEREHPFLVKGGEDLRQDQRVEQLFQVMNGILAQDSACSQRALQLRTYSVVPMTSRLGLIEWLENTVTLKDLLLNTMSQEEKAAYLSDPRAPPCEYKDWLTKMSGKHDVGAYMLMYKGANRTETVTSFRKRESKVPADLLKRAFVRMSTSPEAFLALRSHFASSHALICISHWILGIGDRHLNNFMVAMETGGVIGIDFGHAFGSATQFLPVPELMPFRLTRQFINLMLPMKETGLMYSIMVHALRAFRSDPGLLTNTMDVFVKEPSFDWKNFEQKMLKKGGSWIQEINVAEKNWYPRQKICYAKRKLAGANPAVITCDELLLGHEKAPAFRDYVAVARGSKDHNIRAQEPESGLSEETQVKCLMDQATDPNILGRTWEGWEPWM

Each structure is given as a SMILES string.

This test deals with DNA-dependent protein kinase catalytic subunit (Homo sapiens, UniProt P78527). Nature of the test: Binding affinity for DNA dependent protein kinase isolated from HeLa cells; Range is 20-120. It counts as cell-based.

Regarding `COC[C@H]1OC(=O)c2coc3c2[C@@]1(C)C1=C(C3=O)[C@@H]2CCC(=O)[C@@]2(C)C[C@H]1OC(C)=O` [WORTMANNIN], the affinity corresponds to a Ki of 120 nM.
